Literature values in US9999859B2, “Immobilized multi-layer artificial membrane for permeability measurements (PAMPA)” (CORNING INCORPORATED, priority 2005, dated 2018).

Settings: prior art PAMPA membrane; PBS pH 7.4, room temperature, no agitation; cited from earlier work

Compound | Pe Prior Art Results
O=C(O)Cc1ccccc1Nc1c(Cl)cccc1Cl [diclofenac] | 1.37 10^−6 cm/s
CCN1CCCC1CNC(=O)c1cc(S(N)(=O)=O)ccc1OC (centres unmarked) [sulpiride] | 0.03 10^−6 cm/s
